US20230263822A1, “MODULATION OF FACTOR 11 EXPRESSION” (Ionis Pharmaceuticals, Inc., priority 2008, published 2023)

How the values were obtained:
Factor 11 mRNA = Factor 11 mRNA in liver, FeCl3 induced venous thrombosis model vs warfarin (Example 11); type: in vivo, BALB/c mice; details: FeCl3 VT model
Experimental: Two control groups of BALB/c mice were treated with PBS, administered subcutaneously twice a week for 3 weeks. Two days after the last dose of PBS, mice in both groups were anesthetized with 150 mg/kg ketamine mixed with 10 mg/kg xylazine administered by intraperitoneal injection. Thrombus formation was induced with FeCl3 in all groups of mice except the first control group.
In mice undergoing FeCl3 treatment, thrombus formation was induced by applying a piece of filter paper (2×4 mm) pre-saturated with 10% FeCl3 solution directly on the vena cava. After 3 minutes of exposure, the filter paper was removed. Thirty minutes after the filter paper application, a fixed length of the vein containing the thrombus was dissected out for platelet analysis. Liver was collected for RNA analysis.
RNA was extracted from liver tissue for real-time PCR analysis of Factor 11.

blood coagulation = assay: PT and aPTT vs warfarin (Example 13); type: in vivo, BALB/c mice; details: Warfarin 0.5 mg/kg intraperitoneally daily for 6 days; PPP two days after final dose
Experimental: In a control group, BALB/c mice were treated with PBS, administered subcutaneously mice twice a week for 3 weeks.
Two days after the final dose was administered, PPP was collected and PT and aPTT assays were performed.
PT and aPTT values provided in Table 16 are reported as International Normalized Ratio (INR) values. […] This ratio was then raised to the power of the International Sensitivity Index (ISI) of the tissue factor used.

With `CC(=O)CC(c1ccccc1)c1c(O)c2ccccc2oc1=O` (stereo not shown) [warfarin] the “% inhibition of Factor 11 mRNA in liver relative to PBS control” value (Factor 11 mRNA; Warfarin 0.5 mg/kg intraperitoneally daily for 6 days) was 0%, the “% inhibition of Factor 11 mRNA in liver relative to PBS control” value (Factor 11 mRNA; Warfarin 1 mg/kg intraperitoneally daily for 6 days) was 0% and the “% inhibition of Factor 11 mRNA in liver relative to PBS control” value (Factor 11 mRNA; Warfarin 2 mg/kg intraperitoneally daily for 6 days) was 1%. For the same molecule, the “% inhibition of Factor 11 mRNA in liver relative to PBS control” value (Factor 11 mRNA; Warfarin 3 mg/kg intraperitoneally daily for 6 days) was 5%, the “% inhibition of Factor 11 mRNA in liver relative to PBS control” value (Factor 11 mRNA; Warfarin 4 mg/kg intraperitoneally daily for 6 days) was 8% and the “% inhibition of Factor 11 mRNA in liver relative to PBS control” value (Factor 11 mRNA; Warfarin 5 mg/kg intraperitoneally daily for 6 days) was 11%. For the same molecule, the “PT INR” value (blood coagulation) was 1.41 INR.
